We go through 57 molecules from PubChem BioAssay AID651699 (Sanford-Burnham Center for Chemical Genomics, 2012).

Chains of the proteins cited; added tags and fusions are not shown. Lines headed by an entry give the natural chain unless they say otherwise; changes in a name come on top.
UniProt P61081: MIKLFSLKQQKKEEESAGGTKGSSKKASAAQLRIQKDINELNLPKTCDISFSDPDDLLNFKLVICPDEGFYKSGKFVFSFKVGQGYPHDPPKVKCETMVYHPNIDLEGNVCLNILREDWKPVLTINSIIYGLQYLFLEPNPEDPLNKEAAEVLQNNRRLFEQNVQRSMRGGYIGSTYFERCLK
UniProt Q13564: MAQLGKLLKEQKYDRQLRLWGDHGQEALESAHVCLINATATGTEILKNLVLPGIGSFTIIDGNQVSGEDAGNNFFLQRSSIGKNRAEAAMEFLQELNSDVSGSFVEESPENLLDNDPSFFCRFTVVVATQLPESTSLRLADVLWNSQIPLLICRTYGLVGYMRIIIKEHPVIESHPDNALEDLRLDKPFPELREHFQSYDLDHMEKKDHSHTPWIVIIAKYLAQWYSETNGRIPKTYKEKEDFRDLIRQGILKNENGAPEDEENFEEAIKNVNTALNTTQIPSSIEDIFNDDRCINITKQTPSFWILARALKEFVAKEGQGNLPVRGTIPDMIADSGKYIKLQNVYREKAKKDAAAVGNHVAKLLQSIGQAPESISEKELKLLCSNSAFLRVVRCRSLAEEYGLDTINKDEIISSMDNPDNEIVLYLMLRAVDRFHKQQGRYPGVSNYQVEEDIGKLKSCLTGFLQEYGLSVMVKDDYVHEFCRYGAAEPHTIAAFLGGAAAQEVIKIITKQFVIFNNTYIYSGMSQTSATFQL

This is a selection; strong and weak results do not stand in their true shares. Calls of active or inactive are those of the source. No stated cut-off is given here; in the data, active means inhibition above about 36%; inactive means the rest.

The target of the assay is NEDD8-conjugating enzyme Ubc12 (Homo sapiens) + NEDD8-activating enzyme E1 regulatory subunit (Homo sapiens) (UniProt P61081+Q13564). The assay can be described thus: inhibitors of cullin neddylation, primary screen, biochemical, TR-FRET, uHTS, NAE and Ubc12 (AID 651699). The conditions noted are these: at 25 µM, hits give high values. For orientation: TR-FRET usually uses a lanthanide donor and a delayed reading to cut background.
In general, inhibition refers to the change of the read-out against control, counted positive when it falls. On to `O=C(O)CNc1ccc([As](=O)(O)O)cc1`, for which the inhibition is inactive: 4.52%. As for `COc1ccc(C2=NCC(CBr)S2)cc1` (configuration not stated), the figure is inactive: 7.98%; as for `CC(=O)N1C2C3N(C(C)=O)C1C1N(C(C)=O)C(C(N1C(C)=O)N3C(C)=O)N2C(C)=O`, inactive: -1.37%; as for `O=[N+]([O-])c1cccc2n[nH]nc12`, inactive: -21.8%. To `O=[N+]([O-])c1cc([N+](=O)[O-])c(CCNc2ccccc2)c([N+](=O)[O-])c1` belongs inactive: -37.8%. To `CCc1nc2c(n1)c1c(non1O)c1c2no[n+]1[O-]` belongs inactive: -34.8%; to `Cc1ccc(NP(=O)(Oc2ccccc2)Oc2ccccc2)nc1`, inactive: 30%; to `C[N+]1=C2C=CC=CC=C2SC12C([N+](=O)[O-])=CC([N+](=O)[O-])=C[C-]2[N+](=O)[O-]` (configuration not stated), inactive: -37.4%. `Nc1ccc([As](=O)(O)c2ccc(N)cc2)cc1`: the inhibition is inactive: 5.13%.

With `CCN(/C(=N/P(=O)(N1CCOCC1)N1CCOCC1)N1CCOCC1)c1ccc(OC)cc1`, the inhibition was inactive: 4.23%. As for `CN(C)C(=O)OCCc1n(C)cc[n+]1C`, the figure is inactive: 0.04%; as for `CC(C)c1nc(Nc2ccccc2)n(P(=O)(N(C)C)N(C)C)n1`, inactive: -3.68%; as for `CC(C)=N/N=C(\N)N[N+](=O)[O-]`, inactive: 0.53%. To `CC1CCN(C(=O)Oc2c(Cl)cc(Cl)c3cccnc23)CC1` belongs inactive: -19.3%; to `c1cc(-c2nn[nH]n2)ccc1-c1nn[nH]n1`, inactive: 1.1%. For the molecule `O=P(Nc1nccs1)(c1ccccc1)c1ccccc1`, the inhibition is inactive: -0.67%. As for `CC(C)C(=O)NC(Sc1ccccc1)C(Cl)(Cl)Cl` (configuration not stated), the figure is inactive: -5.29%; as for `c1nnnn1CCn1cnnn1`, inactive: -2.36%. `COc1ccc(N)c([N+](=O)[O-])c1[N+](=O)[O-]`: the inhibition was inactive: -66.5%. As for `Nc1ccc(CCCCOc2ccccc2)cc1`, the figure is inactive: -29.1%. With `CN(C)C1(CNC(=O)c2ccc(Cl)c(S(N)(=O)=O)c2)CCCCC1`, the inhibition was inactive: 3.22%. As for `O=P(Nc1ccccn1)(c1ccc(Br)cc1)c1ccc(Br)cc1`, the figure is inactive: 3.85%; as for `C[C@H]1OP(=O)(Oc2ccccc2)[C@H](O)[C@H](O)[C@H]1N=[N+]=[N-]` (some centres not stated), inactive: -11.7%. Turning to `O=P(Nc1nc2ccccc2s1)(c1ccccc1)c1ccccc1`, the inhibition was inactive: 0.31%. To `O=[N+]([O-])c1ncn(CCn2cnc([N+](=O)[O-])n2)n1` belongs inactive: -30.9%; to `CC(=O)NC(SC(=S)N(C)C)C(Cl)(Cl)Cl` (configuration not stated), inactive: -2.35%. As for `O=[N+]([O-])c1ccc(O)c(/C=N/Nc2ccc([N+](=O)[O-])cc2[N+](=O)[O-])c1`, the figure is inactive: -64.9%; as for `O=[As](O)(c1ccccc1)c1ccc(O)cc1`, inactive: 4.04%.

Turning to `C(Cc1nn[nH]n1)Cc1nn[nH]n1`, the inhibition is inactive: 2.73%. In the case of `Nc1ccc([As](=O)(O)c2ccc([N+](=O)[O-])cc2)cc1`, the inhibition was inactive: -24.1%.

For the molecule `O=C(OC1CN2CCC1CC2)c1cccc(Cl)c1` (configuration not stated), the inhibition is inactive: -1.26%.

On to `O=C(NC1CCS(=O)(=O)C1)NP(=S)(Oc1ccccc1)Oc1ccccc1` (configuration not stated), for which the inhibition was inactive: 11.7%. To `CCNC(=S)/N=C(\N)N[N+](=O)[O-]` belongs inactive: 13.6%; to `Cc1ccc(NP(=O)(Oc2cccc(C)c2)Oc2cccc(C)c2)nc1`, inactive: 5.39%. As for `c1ccc(-c2nn[nH]n2)c(-c2nn[nH]n2)c1`, the figure is inactive: 18.6%.

Regarding `O=P1(N(CCCl)CCCl)OCCC2CCCCN21` (configuration not stated), the inhibition is inactive: -4.23%. Consider `Cc1ccc(OP(=O)(Nc2ccccn2)Oc2ccc(C)cc2)cc1`, for which the inhibition is inactive: -4.71%. As for `CC(=O)NC(SC(=S)N(CC(C)C)CC(C)C)C(Cl)(Cl)Cl` (configuration not stated), the figure is inactive: 11.6%; as for `COC(=O)c1cc2c(s1)N=C(c1ccccc1)N(C)P2(=O)N1CCOCC1` (configuration not stated), inactive: -1.33%. As for `CCC(=O)N1C2C3N(C(=O)CC)C1C1N(C(=O)CC)C(C(N1C(=O)CC)N3C(=O)CC)N2C(=O)CC`, the figure is inactive: 1.13%; as for `O=C(OC1CN2CCC1CC2)c1ccccc1` (configuration not stated), inactive: 4.76%; as for `O=c1c2cc([N+](=O)[O-])ccc2[nH]c2c([N+](=O)[O-])cc([N+](=O)[O-])cc12`, inactive: -60.9%.

Consider `CN(C)C(=O)Oc1noc2ccccc12`, for which the inhibition is inactive: 3.78%.

As to `CC(NC(=O)COC(=O)C(O)(c1ccccc1)c1ccccc1)c1ccccc1` (configuration not stated), the inhibition is inactive: 5.94%. Take `Cc1ccccc1OP(=O)(Nc1ccccn1)Oc1ccccc1C`: the inhibition was inactive: 26.7%. As for `CCOc1ccc(C2=NCC(CBr)S2)cc1` (configuration not stated), the figure is inactive: -2.45%; as for `O=P1(Nc2nc3ccc(Cl)cc3s2)COc2ccccc2O1` (configuration not stated), inactive: 13.6%. As for `CCc1cc(O)c([N+](=O)[O-])c(C)c1[N+](=O)[O-]`, the figure is inactive: -3.08%. As for `CC(C)(C)C(=O)NC(Sc1ccccc1)C(Cl)(Cl)Cl` (configuration not stated), the figure is inactive: 0.06%. Regarding `COC(=O)C1(C)COP(=O)(NCc2ccccc2)OC1` (configuration not stated), the inhibition was inactive: 2.6%. In the case of `CC(=O)c1ccc(N2CC2c2ccncc2)cc1` (configuration not stated), the inhibition was inactive: -2.09%. As for `N#C/C(=C\c1ccc(N(CCBr)CCBr)cc1)C(N)=O`, the figure is inactive: -12.9%; as for `C[C@H]1OP(=O)(Oc2ccccc2)C[C@@H]2O[C@@H]21` (some centres not stated), inactive: 6.11%; as for `C[C@@H]1C=CCP(=O)(Oc2ccccc2)O1` (some centres not stated), inactive: -34.7%.

Consider `Cc1ccccc1CN(C)C(=O)COC(=O)C(O)(c1ccccc1)c1ccccc1`, for which the inhibition was inactive: 12.7%. To `CC(=O)Nc1ccc(Oc2c([N+](=O)[O-])cc([N+](=O)[O-])cc2[N+](=O)[O-])cc1` belongs inactive: -44%; to `CC(=O)Nc1ccc([As](=O)(O)O)c(O)c1`, inactive: 6.12%.
